Here are results for two substances from paper PMC12772190.

The target of test [1] is bOmpA 1 Cys N-term labeled with Alexa Fluor 488 (TM β-barrel of OmpA) (UniProt P0A910).
Test [2] has the same target. This is another data set of the same source.

In turn, “BamAB subcomplex (BamA coexpressed with His-tagged BamB) (from UniProt P0A940 21-810; P77774 20-392)” returned a K0.5 of single-turnover folding kinetics, fluorescence of bOmpA-A488, BamAB in EPL proteoliposomes in test [1] of 2.7 µM.
Take “Wild-type BAM complex (BamABCDE) (from UniProt P0A940 21-810; P77774 20-392; P0A903 25-344; P0AC02 20-245; P0A937 20-113)”: in test [2], the K0.5 (BAM concentration at half k fold) of single-turnover folding kinetics, fluorescence of 10 nM bOmpA-A488, BAM in EPL proteoliposomes, 0.1 µM SurA was 3.1 µM.
